Source: patent US20220119459A1 (OXFORD UNIVERSITY INNOVATION, published 2022)

B1: L1C6 SpyCatcher variant (designed binder)
chain: GAMVDTLSGLSGEQGPSGDMTTEEDSATHIKFSKRDEDGRELAGATMELRDSSGKTISTWISDGHVKDFYLYPGKYTFVETAAPDGYEVATAITFTVNEQGQVTVNGEATKGDAHT
notes: also called SpyCatcher L1C6
B2: SpyCatcher002D5A (designed binder)
chain: GAMVATLSGLSGEQGPSGDMTTEEDSATHIKFSKRDEDGRELAGATMELRDSSGKTISTWISDGHVKDFYLYPGKYTFVETAAPDGYEVATAITFTVNEQGQVTVNGEATKGDAHT
notes: also called D5A SpyCatcher002; variant of SpyCatcher002 containing an alanine residue at position 5

Tests used:
[1] = molecular target: the molecule itself; experiment: SDS-PAGE with Coomassie staining (FIG. 7A)
AP-SpyTag002-MBP = molecular target: T1, AP-SpyTag002-MBP; experiment: 0.5 µM each, PBS pH 7.5, 25 °C, SDS-PAGE with Coomassie staining (FIG. 16)
T1 construct: not shown: AP peptide tag for site-specific biotinylation; only primer DNA is printed for it

Binder	binding result [1]	reaction rate (second-order rate constant) (AP-SpyTag002-MBP)
B1	binds	–
B2	–	7500 M⁻¹ s⁻¹
